The values below come from patent US20200171133A1.

The target in test [1] is cation-independent mannose-6-phosphate receptor (CIMPR). Briefly: CIMPR affinity chromatography (FIG. 5B).
For test [2] the target is unchanged. The experiment in a line: M6P receptor (CIMPR) plate binding assay, bound rhGAA read by GAA activity.
Test [3] shares this target. Briefly: CIMPR affinity chromatography of several production batches.
Test [4] has the same target. The experiment in a line: CIMPR affinity chromatography, M6P elution gradient, fractions read by GAA activity (4MU-α-glucose).

On to “ATB200 rhGAA (recombinant human acid α-glucosidase produced in CHO cell line GA-ATB-200) (from UniProt P10253 57-952) (enzyme)”, for which the percent of rhGAA bound to CIMPR column (contained M6P) in test [1] came out at 70%. Besides, in test [2], the Kd is 2 to 4 nM. Besides, the CIMPR receptor binding, percent in test [3] was determined as 70%.
As to “Myozyme® (alglucosidase alfa, conventional rhGAA, Genzyme) (from UniProt P10253 57-952)”, in test [4], the percent of rhGAA bound to CIMPR column (eluted with M6P) was determined as 27% and the percent of rhGAA that did not bind is 73%.
For “Lumizyme® (alglucosidase alfa, conventional rhGAA, Genzyme) (from UniProt P10253 57-952)”, in that order: 22% and 78%.
